One may read the IC50 as the concentration needed to halve the response being measured.

Amino acid sequences for entries named in this document (tags omitted).
UniProt P04150, whole entry: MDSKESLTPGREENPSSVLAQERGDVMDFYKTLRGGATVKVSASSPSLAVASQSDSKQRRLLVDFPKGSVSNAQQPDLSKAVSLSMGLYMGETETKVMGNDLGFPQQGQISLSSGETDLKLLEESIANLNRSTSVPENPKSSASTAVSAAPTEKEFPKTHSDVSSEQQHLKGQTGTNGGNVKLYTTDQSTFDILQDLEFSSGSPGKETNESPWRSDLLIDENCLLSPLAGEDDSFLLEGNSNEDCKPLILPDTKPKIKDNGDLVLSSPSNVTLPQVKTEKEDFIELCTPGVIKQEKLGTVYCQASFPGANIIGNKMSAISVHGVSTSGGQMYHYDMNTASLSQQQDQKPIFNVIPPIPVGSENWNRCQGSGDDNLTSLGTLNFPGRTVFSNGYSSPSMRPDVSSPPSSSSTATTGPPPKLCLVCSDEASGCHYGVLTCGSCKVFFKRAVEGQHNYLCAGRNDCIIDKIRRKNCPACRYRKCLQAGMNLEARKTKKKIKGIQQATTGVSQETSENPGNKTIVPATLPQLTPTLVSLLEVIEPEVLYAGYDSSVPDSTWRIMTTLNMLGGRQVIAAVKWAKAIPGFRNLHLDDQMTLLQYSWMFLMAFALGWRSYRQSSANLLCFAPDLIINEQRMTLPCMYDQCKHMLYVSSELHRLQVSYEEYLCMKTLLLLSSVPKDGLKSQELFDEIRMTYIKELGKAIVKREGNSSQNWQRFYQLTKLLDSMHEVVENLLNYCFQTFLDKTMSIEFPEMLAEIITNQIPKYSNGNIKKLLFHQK

Experiment [1] relates to IL-6 in A549 cells stimulated with IL-1β. The experiment is described as follows: A549 Cell Assay to Measure Inflammation Markers (inhibition of IL-1β-induced IL-6). The conditions noted are these: intrinsic activity, Emax class ranges.
In experiment [2] the target is Glucocorticoid Receptor (GR) (Homo sapiens, UniProt P04150). The experiment can be described thus: GR Fluorescence Polarization Assay (PolarScreen Glucocorticoid Receptor Competitor Assay, Red). The conditions noted are these: read-out: GR binding, IC50 class ranges. A general note: Fluorescence polarisation rises when a labelled molecule tumbles more slowly, as on binding a larger partner.

As for `Cc1cc(Br)ccc1C1SCC(C)Nc2c1c(-c1ncon1)nn2C` (stereo not shown), the “A549 Emax” value in experiment [1] was “D (a compound with Emax<50%)”. Moreover, the half-maximal inhibitory concentration (IC50) in experiment [2] was < 100 nM.

Turning to `Cc1cc(C2SCC(C)Nc3c2c(-c2ccccn2)nn3C)c(C)cc1Br` (racemic), the “A549 Emax” value in experiment [1] is listed as “B (a compound with Emax>60%)”. In addition, the IC50 in experiment [2] was < 100 nM.
